The subject of the series is tumor. As to conditions: organ distribution in vivo.

PSMA-1007: the tumor uptake was 8.0±2.4 %ID/g.

Values taken from article PMC5843810, “18th European Symposium on Radiopharmacy and Radiopharmaceuticals” (EJNMMI Radiopharmacy and Chemistry, 2016).
